# Experimental data as given in patent US5464855A, “Thiophene-2-carboxamidotetrazoles and pharmaceutical use thereof” (Warner-Lambert Company, priority 1994, dated 1995).
# Where a name gives a salt, the structure may show the parent alone.
# Target: T1, Mac-1 (Homo sapiens, UniProt P05107+P11215)
# T1 construct: isolate neutrophils from ethylenediaminetetraacetic acid (EDTA)-treated venous blood obtained from healthy human volunteers; endogenous in cells; host or cells: human neutrophils (PMN) isolated from venous blood of healthy volunteers
# Assay: Human neutrophil Mac-1 adhesion assay (fMLP-stimulated PMN adhesion to KLH-coated plates)
# Format: cell-based
row,SMILES,IC50 [µM]
1,"CC(C)Oc1c(C(=O)Nc2nnn[nH]2)sc2c1CCCC2 [Example 1, 3-Isopropoxy-4,5,6,7-tetrahydro-benzo[b]thiophene-2-carboxylic acid (1H-tetrazol-5-yl)-amide]",1.5
2,"CC(C)Oc1c(C(=O)Nc2nnn[nH]2)sc2c1CSC2 [Example 3, 3-Isopropoxy-4,6-dihydro-thieno[3,4-b]thiophene-2-carboxylic acid (1H-tetrazol-5-yl)-amide]",1.2
3,"CC(C)Oc1c(C(=O)Nc2nnn[nH]2)sc2c1CSCC2 [Example 4, 3-Isopropoxy-6,7-dihydro-4H-thieno[3,2-c]thiopyran-2-carboxylic acid (1H-tetrazol-5-yl)-amide]",3
4,"CC(C)Oc1c(C(=O)Nc2nnn[nH]2)sc2c1C[S+]([O-])CC2 (stereo not drawn) [Example 5, 3-Isopropoxy-5-oxo-6,7-dihydro-4H-thieno [3,2-c]thiopyran-2-carboxylic acid (1H-tetrazol-5-yl)-amide]",22.7
5,"CC(C)Oc1c(C(=O)Nc2nnn[nH]2)sc2c1CN(C(=O)OC(C)(C)C)CC2 [Example 7, 3-Isopropoxy-5-tert-butoxycarbonyl-6,7-dihydro-4H-thieno[3,2-c]pyridine-2-carboxylic acid (1H-tetrazol-5-yl)amide]",21.2
6,"CC(C)Oc1c(C(=O)Nc2nn[nH]n2)sc2c1CNCC2 [Example 8, 3-Isopropoxy-6,7-dihydro-4H-thieno[3,2-c]pyridine-2-carboxylic acid (1H-tetrazol-5-yl)amide hydrochloride]",4.3
